# This is a selection; strong and weak results do not stand in their true shares. Active and inactive are the calls of the source. Rule as the data show it: active = inhibition above about 25%; inactive = the rest.
# Amino acid sequences for entries named in this document (tags omitted). Residues count along the entry.
# UniProt Q9ULH1, 325-724 limits assumed: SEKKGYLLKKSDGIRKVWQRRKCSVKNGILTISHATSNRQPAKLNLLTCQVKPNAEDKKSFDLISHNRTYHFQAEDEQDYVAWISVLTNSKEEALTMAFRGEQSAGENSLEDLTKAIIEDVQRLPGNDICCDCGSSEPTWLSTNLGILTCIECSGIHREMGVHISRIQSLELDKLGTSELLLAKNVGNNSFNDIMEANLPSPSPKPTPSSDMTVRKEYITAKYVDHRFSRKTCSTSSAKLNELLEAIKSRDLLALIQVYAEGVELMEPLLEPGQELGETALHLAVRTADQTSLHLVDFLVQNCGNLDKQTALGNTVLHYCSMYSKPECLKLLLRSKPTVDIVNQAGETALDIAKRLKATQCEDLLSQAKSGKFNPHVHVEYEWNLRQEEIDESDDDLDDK
# Biological target: Arf-GAP with SH3 domain, ANK repeat and PH domain-containing protein 1 (Homo sapiens) (UniProt Q9ULH1)
# Assay: blockers of ASAP1-stimulated ARF1 GTP hydrolysis – biochemical, fluorescence polarization, primary screen (AID 624377);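 also: 0% = vehicle with enzyme and substrate and 100% = no enzyme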
# Conditions: GDP FP detection, at 16.5 µM, active compounds read high
row,SMILES,inhibition
1,CCOC(=O)c1ccc(NP(C)(=O)Oc2cc(C)cc(C)c2)cc1 (centres undefined),inactive: 6.74%
2,Cc1cc(C)cc(OP(C)(=O)Nc2ccc(C)cc2C)c1 (centres undefined),inactive: 4%
3,COc1ccccc1OP(C)(=O)Nc1cccc(Br)c1 (centres undefined),inactive: -7.08%
4,Cc1ccc(C)c(NP(C)(=O)Oc2ccccc2)c1 (centres undefined),inactive: -9.55%
5,CP(=O)(Nc1cccc(Br)c1)Oc1ccccc1 (centres undefined),inactive: -6.11%
6,Cc1cc(C)cc(OP(C)(=O)Nc2ccccn2)c1 (centres undefined),inactive: 2.54%
7,O=C(O)c1cccc(Nc2c([N+](=O)[O-])cc([N+](=O)[O-])cc2[N+](=O)[O-])c1,inactive: -4.66%
8,CC1=NCCc2c1[nH]c1ccccc21.O=[N+]([O-])c1cc([N+](=O)[O-])c(O)c([N+](=O)[O-])c1,inactive: -6.01%
9,CCOC(=O)C(CC)C1=NC(C)(C)Cc2ccccc21.O=[N+]([O-])c1cc([N+](=O)[O-])c(O)c([N+](=O)[O-])c1 (centres undefined),inactive: 4.74%
10,O=[N+]([O-])c1cc([N+](=O)[O-])c(Nc2nnnn2CCO)c([N+](=O)[O-])c1,inactive: -1.02%
11,COc1ccc(-c2ccccn2)cc1.O=[N+]([O-])c1cc([N+](=O)[O-])c(O)c([N+](=O)[O-])c1,inactive: -3.64%
12,CP(=O)(Nc1ccc(SC(F)(F)F)cc1)Oc1ccccc1 (centres undefined),inactive: 16.9%
13,CCCOc1ccc(NP(C)(=O)Oc2ccc(Cl)cc2)cc1 (centres undefined),inactive: 7.57%
14,CN1CCCCC1COC(=O)C1(O)c2ccccc2CCc2ccccc21 (centres undefined),inactive: -6.46%
15,COc1ccccc1OP(C)(=O)Nc1c(C)cccc1C (centres undefined),inactive: -7.81%
16,CN(Cc1cccnc1)C(=O)COc1ccc(Cl)c(Cl)c1.O=[N+]([O-])c1cc([N+](=O)[O-])c(O)c([N+](=O)[O-])c1,inactive: 11.4%
17,O=[N+]([O-])c1cc([N+](=O)[O-])c(-n2nnc3ccccc32)c([N+](=O)[O-])c1,inactive: 17.2%
18,Cc1nc2ccc3ccccc3c2s1.O=[N+]([O-])c1cc([N+](=O)[O-])c(O)c([N+](=O)[O-])c1,inactive: -1.68%
19,O=[N+]([O-])c1cc([N+](=O)[O-])c(-c2cnn(-c3ccccc3)c2)c([N+](=O)[O-])c1,inactive: 9.72%
20,Cc1cc(C)cc(OP(C)(=O)Nc2ccc(SC(F)(F)F)cc2)c1 (centres undefined),inactive: 8.08%

row,SMILES,inhibition
1,CCc1ccc(OP(C)(=O)N2CCN(c3ccc([N+](=O)[O-])cc3)CC2)cc1 (centres undefined),inactive: 7.79%
2,CP(=O)(NC(=O)Nc1ccccc1)Oc1ccccc1 (centres undefined),inactive: 10.4%
3,CP(=O)(Oc1ccccc1)OC(c1ccccc1)C(F)(F)F (centres undefined),inactive: -14.6%
4,CP(=O)(Nc1ccc(SC(F)(F)F)cc1)Oc1ccc(Cl)cc1 (centres undefined),inactive: -7.23%
5,Cc1cccc(C)c1OP(C)(=O)Nc1ccc(SC(F)(F)F)cc1 (centres undefined),inactive: -8.53%
6,CP(=O)(Nc1ccccn1)Oc1ccc(Cl)cc1 (centres undefined),inactive: 15.1%
7,O=[N+]([O-])c1cc([N+](=O)[O-])c(O)c([N+](=O)[O-])c1.c1ccc(Oc2ccncc2)cc1,inactive: -5.85%
8,CCOC(=O)c1ccc(NP(C)(=O)Oc2ccc(OC)cc2)cc1 (centres undefined),inactive: -4.41%
9,CCOP(C)(=S)SCC(=O)NC(C)C(=O)O (centres undefined),inactive: -0.27%
10,CP(=O)(Nc1ccccc1Br)Oc1ccccc1 (centres undefined),inactive: 1.31%
11,COc1ccccc1OP(C)(=O)Nc1ccccc1 (centres undefined),inactive: 8.49%
12,CP(=S)(Nn1cnnc1)Oc1ccccc1 (centres undefined),inactive: -0.26%
13,O=[N+]([O-])c1ccc2c(c1)C=Nc1ccccc1O2,inactive: -3.01%
14,Cc1cccc(C)c1OP(C)(N)=O (centres undefined),inactive: 0.53%
15,CC(C)(C)c1ccc(OP(C)(=O)Nc2ccc(SC(F)(F)F)cc2)cc1 (centres undefined),inactive: 6.36%
16,O=[N+]([O-])c1cc([N+](=O)[O-])c(Nc2cccnc2)c([N+](=O)[O-])c1,inactive: 9.38%
17,Cc1cc(C)cc(OP(C)(N)=O)c1 (centres undefined),inactive: -3.91%
18,COc1ccc(OP(C)(=O)Nc2cccc(F)c2)cc1 (centres undefined),inactive: 9.88%
19,COc1ccccc1OP(C)(=O)Nc1cc(Cl)ccc1C (centres undefined),inactive: 11.9%
20,Cc1ccc(NP(C)(=O)Oc2ccccc2)c(C)c1 (centres undefined),inactive: 7.88%

row,SMILES,inhibition
1,COc1ccccc1OP(C)(=O)Nc1ccc(C)cc1 (centres undefined),inactive: -2.51%
2,CCOC(=O)c1ccc(NP(C)(=O)Oc2ccccc2)cc1 (centres undefined),inactive: 0.04%
3,CCN(CC)CCCOC(=O)C(O)(c1ccccc1)c1ccccc1,inactive: -2.41%
4,COc1ccccc1-c1ccccn1.O=[N+]([O-])c1cc([N+](=O)[O-])c(O)c([N+](=O)[O-])c1,inactive: -4.97%
5,COc1ccc(OP(C)(=O)Nc2ccccn2)cc1 (centres undefined),inactive: -4.26%
6,CN(C)CCOC(=O)C(O)(c1ccccc1)C1CCCC1 (centres undefined),inactive: -4.2%
7,COc1ccccc1OP(C)(=O)Nc1ccc(Br)cc1 (centres undefined),inactive: -3.08%
8,COc1ccccc1OP(C)(=O)Nc1ccc(C)cc1C (centres undefined),inactive: -9.45%
9,CP(=O)(Nc1ccccn1)Oc1ccccc1 (centres undefined),inactive: 9.24%
10,CCc1ccc(OP(C)(=O)O)cc1,inactive: -7.07%
11,O=[N+]([O-])c1cc([N+](=O)[O-])c(Nc2ccccn2)c([N+](=O)[O-])c1,inactive: 2.51%
12,Cc1c(NP(C)(=O)Oc2ccc(C(C)C)cc2)c(=O)n(-c2ccccc2)n1C (centres undefined),inactive: -2.73%
13,COc1ccccc1OP(C)(=O)Nc1ccc(C)c(C)c1 (centres undefined),inactive: -3.62%
14,COc1ccc(OP(C)(=O)Nc2ccccc2Br)cc1 (centres undefined),inactive: 2.96%
15,Cc1cc(C)cc(OP(C)(=O)Nc2cccc(C(F)(F)F)c2)c1 (centres undefined),inactive: 4.57%
16,O=C1C(O)=C([N+](=O)[O-])C(=O)C(O)=C1[N+](=O)[O-],inactive: -11.4%
17,CP(=O)(OCCOc1ccccc1)OCCOc1ccccc1,inactive: -3.06%
18,CP(=O)(Nc1ccc(Cl)cc1Cl)Oc1ccccc1 (centres undefined),inactive: -2.67%
19,CCCCCCCCCCCCCCCC1C[N+](C)(C)CCOP(C)(=O)O1 (centres undefined),inactive: -13.7%
